Values of other authors, collected in patent US7858570B2, “Compositions and methods for removing urushiol and treating the resulting skin condition” (priority 2004, dated 2010).

nonylphenol ethoxylate [10 mol nonylphenol ethoxylate]
solubility in water: Soluble
